Source: ChEMBL document CHEMBL2177099, “Discovery of 1-[4-(N-benzylamino)phenyl]-3-phenylurea derivatives as non-peptidic selective SUMO-sentrin specific protease (SENP)1 inhibitors” (Bioorg Med Chem Lett, 2012)
Calls of active or inactive are those of the source. The rule behind the calls is not given here.

Columns and labels:
[1] = biological target: T1, Sentrin-specific protease 2 (Homo sapiens) (UniProt Q9HC62); experiment: Inhibition of recombinant human SENP2 catalytic domain assessed as release of fluorescent AMC from SUMO-1-AMC preincubated at 10 to 100 uM for 10 mins before substrate addition by fluorescence assay
T1 sequence (whole entry): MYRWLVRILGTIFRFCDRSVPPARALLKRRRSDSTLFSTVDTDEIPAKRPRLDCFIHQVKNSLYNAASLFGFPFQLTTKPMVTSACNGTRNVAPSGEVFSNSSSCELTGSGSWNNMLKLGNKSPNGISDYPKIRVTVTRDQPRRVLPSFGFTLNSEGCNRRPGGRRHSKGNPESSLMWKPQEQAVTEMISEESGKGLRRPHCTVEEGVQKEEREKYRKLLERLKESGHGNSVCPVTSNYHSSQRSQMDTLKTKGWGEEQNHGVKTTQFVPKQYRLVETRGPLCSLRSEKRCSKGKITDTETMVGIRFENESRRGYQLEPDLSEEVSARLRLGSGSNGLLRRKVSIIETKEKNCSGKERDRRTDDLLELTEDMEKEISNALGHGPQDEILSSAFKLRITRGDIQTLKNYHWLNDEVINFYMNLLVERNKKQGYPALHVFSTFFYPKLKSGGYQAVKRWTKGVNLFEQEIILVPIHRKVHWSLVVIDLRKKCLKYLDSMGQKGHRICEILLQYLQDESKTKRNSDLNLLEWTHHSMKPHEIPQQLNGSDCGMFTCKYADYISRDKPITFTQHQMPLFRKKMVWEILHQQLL

[2] = biological target: T2, Sentrin-specific protease 1 (Homo sapiens) (UniProt Q9P0U3); details: 100 uM
T2 sequence (whole entry): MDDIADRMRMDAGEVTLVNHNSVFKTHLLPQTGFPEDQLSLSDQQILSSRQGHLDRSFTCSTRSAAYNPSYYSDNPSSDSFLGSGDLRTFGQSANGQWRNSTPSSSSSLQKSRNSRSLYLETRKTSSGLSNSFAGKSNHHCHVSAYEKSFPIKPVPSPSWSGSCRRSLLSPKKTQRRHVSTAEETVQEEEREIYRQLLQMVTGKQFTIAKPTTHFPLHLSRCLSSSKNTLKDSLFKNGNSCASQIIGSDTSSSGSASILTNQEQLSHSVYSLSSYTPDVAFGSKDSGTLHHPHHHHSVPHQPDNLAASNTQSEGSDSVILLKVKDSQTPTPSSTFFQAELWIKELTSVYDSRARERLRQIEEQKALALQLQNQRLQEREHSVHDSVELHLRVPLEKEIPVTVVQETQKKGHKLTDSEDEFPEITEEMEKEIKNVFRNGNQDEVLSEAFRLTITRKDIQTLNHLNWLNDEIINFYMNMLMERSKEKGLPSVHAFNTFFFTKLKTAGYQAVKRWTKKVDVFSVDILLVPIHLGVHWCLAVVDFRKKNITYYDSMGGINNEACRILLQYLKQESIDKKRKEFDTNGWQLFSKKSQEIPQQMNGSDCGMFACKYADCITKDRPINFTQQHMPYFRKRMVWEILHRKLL

Structure (SMILES)	inhibition [1]	inhibition [2] [%]
CCN1C(=O)C=CC1=O	Active	
COC(=O)c1cccc(CNc2ccc(NC(=O)Nc3ccccc3)cc2)c1		40
